In patent US6855807B1 (priority 1999, dated 2005) one finds Ki data, which are given here for one compound.

The chains behind the UniProt entries cited, without tags or fusion partners.
UniProt P32300, whole entry: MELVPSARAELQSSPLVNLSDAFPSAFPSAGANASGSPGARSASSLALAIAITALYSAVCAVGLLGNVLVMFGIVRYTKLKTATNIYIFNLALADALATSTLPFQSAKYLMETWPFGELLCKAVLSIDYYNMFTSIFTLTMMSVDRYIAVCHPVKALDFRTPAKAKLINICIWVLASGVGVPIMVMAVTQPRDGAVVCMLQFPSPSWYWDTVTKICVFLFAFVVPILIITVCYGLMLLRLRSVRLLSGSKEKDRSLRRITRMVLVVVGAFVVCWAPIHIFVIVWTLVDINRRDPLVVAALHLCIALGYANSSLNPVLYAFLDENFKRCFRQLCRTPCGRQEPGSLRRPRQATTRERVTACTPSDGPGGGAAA

The target of the assay is delta opioid receptor (Mus musculus, UniProt P32300). The assay is described as follows: Competition of 3H-diprenorphine binding in membranes of cells expressing delta receptors. The note with it: read-out: Delta (Ki nM); ligand alone; competition with 3H-diprenorphine; mean ± SEM (n = 3-4).

For the compound `CO[C@]12CC[C@@]3(C[C@@H]1C(C)(C)O)[C@H]1Cc4ccc(O)c5c4[C@@]3(CCN1CC1CC1)[C@H]2O5`, the Ki was determined as 1.43 nM.
